The values below are quoted from earlier work in US20260132160A1, “IRON REPLACEMENT TREATMENTS” (The General Hospital Corporation, priority 2022, published 2026).

For this data set the following is noted: serum Zn^2+ speciation; cited from earlier work.

As to “albumin: serum albumin, predominant binder of serum Zn^2+”, the “log KML PH 7.4 of Zn bound to albumin” value is given as 7.0.
